The chains behind the UniProt entries cited, without tags or fusion partners. Where a name states a change or a piece, a line headed by the entry shows the natural chain unless it says otherwise. Residues count along the entry.
UniProt P00533, 696-1022 limits assumed: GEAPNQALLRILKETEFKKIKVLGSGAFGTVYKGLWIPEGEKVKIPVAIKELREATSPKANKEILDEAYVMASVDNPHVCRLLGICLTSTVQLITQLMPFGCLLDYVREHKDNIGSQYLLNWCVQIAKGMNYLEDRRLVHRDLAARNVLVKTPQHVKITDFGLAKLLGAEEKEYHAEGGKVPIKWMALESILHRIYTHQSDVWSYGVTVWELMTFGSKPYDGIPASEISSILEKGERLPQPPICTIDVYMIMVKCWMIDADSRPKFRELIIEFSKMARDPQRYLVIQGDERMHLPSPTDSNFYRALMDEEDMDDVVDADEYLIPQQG
UniProt P00533, 712-979 T790M/C797S/L858R limits assumed: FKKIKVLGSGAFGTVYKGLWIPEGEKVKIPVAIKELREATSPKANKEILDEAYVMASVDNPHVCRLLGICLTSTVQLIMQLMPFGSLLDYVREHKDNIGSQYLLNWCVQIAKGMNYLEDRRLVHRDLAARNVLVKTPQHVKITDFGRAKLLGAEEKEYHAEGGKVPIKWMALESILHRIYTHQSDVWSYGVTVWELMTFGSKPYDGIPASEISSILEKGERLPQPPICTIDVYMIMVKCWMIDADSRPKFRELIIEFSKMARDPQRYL

According to publication PMC12794186, “Covalent Alkynylpyridopyrimidinones Targeting Cysteine 775 of the Epidermal Growth Factor Receptor Overcome Resistance to Current Therapies” (Journal of Medicinal Chemistry, 2025):

Experiments:
[1] = target: recombinant triply mutated EGFR L858R, T790M, C797S kinase domain (mLTC-EGFR) (Homo sapiens, UniProt P00533, C797S/L858R/T790M); experiment: TR-FRET fluorescent probe displacement assay; format: binding
[2] = target: wild-type EGFR (WT-EGFR) (Homo sapiens, UniProt P00533); experiment: TR-FRET fluorescent probe displacement assay; format: binding

## CN(C)CCN(C)c1ccc(Nc2ncc3ccc(=O)n(-c4ccccc4)c3n2)cc1
[1]; n > 3
  mLTC-EGFR pIC50 ± std dev: 6.2 ± 0.14
[1]; read-out: mLTC-EGFR IC50
  IC50: 0.63 µM
[2]; n > 3
  WT-EGFR pIC50 ± std dev: 5.1 ± 0.40
[2]; read-out: WT-EGFR IC50
  IC50: 7.2 µM
